# AlphaSeq binding of Ab-14 light chain variants to a spike HR2 peptide

From the AlphaSeq antibody data of Li et al. 2023 (doi:10.1038/s41467-023-39022-2), copy in the FLAb collection.

Binding partner: SARS-CoV-2 spike HR2 peptide, sequence PDVDLGDISGINAS.

The variants keep the heavy chain, the linker and the frameworks of Ab-14 (scFv order VH, the linker GGGGSGGGGSGGGGS, VL).
VH: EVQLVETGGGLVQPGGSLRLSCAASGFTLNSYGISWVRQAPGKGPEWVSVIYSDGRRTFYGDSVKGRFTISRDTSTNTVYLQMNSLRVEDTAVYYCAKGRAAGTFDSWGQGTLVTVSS
VL: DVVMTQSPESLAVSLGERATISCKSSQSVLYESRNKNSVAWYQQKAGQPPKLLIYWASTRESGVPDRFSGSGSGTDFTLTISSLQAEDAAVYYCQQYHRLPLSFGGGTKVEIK

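The starting antibody came from a phage panning campaign against this peptide. These sequences belong to a second round, designed from the earlier measurements on random variants of the parent. Group labels follow the data file (Ctrl: baseline library sampled from a position-specific scoring matrix, with some repeated check sequences; GP: Gaussian process model; HC: hill climbing; a sequence that several methods proposed may carry one label only). The scFvs were displayed on barcoded MATa yeast, the peptide on MATalpha yeast. Pairs that bind mate more often; barcode pairs of the diploids are counted by sequencing. The ratio of observed to expected reads was calibrated, replicate by replicate, on BCL2-family standards whose Kd was known from biolayer interferometry. The assay was run in six technical replicates.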

Changes read parent residue, position, new residue, counted from the first residue of the VL shown.
Scale: log10 of Kd in nM, estimated from mating counts; low values are strong binders.
Averages over replicates are reported, and they cover detected replicates only.
A pair that was not seen in that replicate is written "ND"; this usually means weak binding, but a binder can also be missed.

| changes | group | log10 Kd, replicates | log10 Kd (nM), mean | control signals |
|---|---|---|---|---|
| S25I V29A L30Q A57G Q96A | Ctrl | 1.88 1.36 1.22 1.77 1.61 1.81 | 1.61 | 2/18 (2.71) |
| V29Q S62Q | Ctrl | 2.18 1.04 1.34 1.57 0.63 2.38 | 1.52 | 0/18 |
| K36A | Ctrl | ND ND ND 4.58 ND ND | 4.58 | 2/18 (2.41) |
| Y31N Q95Y Q96S | Ctrl | ND ND ND 1.99 ND ND | 1.99 | 1/18 (1.60) |
| S25L Y31S S33E W56Y | Ctrl | 0.82 0.54 0.40 0.59 0.69 0.68 | 0.62 | 2/18 (2.42) |
| L30G E32M H98V | Ctrl | ND ND ND ND ND ND | ND | 0/18 |
| Q27L R34T | Ctrl | 1.59 1.58 2.00 1.53 1.41 1.96 | 1.68 | 2/18 (2.14) |
| S25M L102T | Ctrl | ND 1.27 1.70 1.21 ND 2.08 | 1.56 | 1/18 (1.85) |
| V29L R34N S58D | Ctrl | 0.63 0.54 0.48 0.54 0.48 0.61 | 0.55 | 1/18 (3.41) |
| Q27G R34N W56G E61Q | Ctrl | 0.66 0.32 0.50 0.72 0.40 0.56 | 0.53 | 1/18 (2.61) |
| S26P V29M L30M Y97G | Ctrl | ND ND ND ND ND ND | ND | 1/18 (1.42) |
| S26C K36A W56S R99K L102V | Ctrl | 0.95 0.55 0.55 0.48 0.27 0.75 | 0.59 | 2/18 (2.91) |
| S26C Y31L R34Y N37T | Ctrl | 1.57 1.64 ND 3.53 2.34 2.14 | 2.24 | 0/18 |
| T59G R99T | Ctrl | ND ND ND ND ND ND | ND | 0/18 |
| S26A V29K E32D R34D S38P W56Q S103R | Ctrl | 0.94 0.64 0.50 0.66 0.58 0.59 | 0.65 | 0/18 |
| S25Q Q27M V39M | Ctrl | ND 2.73 3.14 ND ND ND | 2.93 | 0/18 |
| S26N N35T V39I A57T | Ctrl | ND 3.79 ND ND ND ND | 3.79 | 0/18 |
| N35A K36G | Ctrl | ND ND ND ND ND ND | ND | 0/18 |
| R34E Q95L | Ctrl | ND 0.85 ND 0.67 0.61 ND | 0.71 | 0/18 |
| S26N Q27D V29S | Ctrl | ND ND ND 1.84 2.30 2.55 | 2.23 | 2/18 (1.64) |
| Y31M W56E Q96N S103Q | Ctrl | 1.45 1.30 1.34 1.27 1.14 1.38 | 1.31 | 2/18 (3.73) |
| K24W V29S R34T N37I S103G | Ctrl | ND ND ND ND ND ND | ND | 0/18 |
| R34G K36T H98S | Ctrl | ND ND ND ND ND ND | ND | 0/18 |
| K24M R34E W56Q S62A | Ctrl | 2.21 0.68 1.13 0.84 1.28 1.31 | 1.24 | 0/18 |
| V29G R34S | Ctrl | 1.30 1.72 1.56 1.13 1.48 1.10 | 1.38 | 0/18 |
| S26R E32G | Ctrl | 0.71 0.87 0.56 1.16 0.92 1.21 | 0.90 | 0/18 |
| S25V S33W N35S | Ctrl | ND ND ND ND ND ND | ND | 0/18 |
| S26Y S28I S33D R99W P101L S103I | Ctrl | ND ND ND ND ND ND | ND | 0/18 |
| W56S Y97K L100D | Ctrl | 1.09 1.08 0.41 0.95 0.73 1.18 | 0.91 | 0/18 |
| K24A Q27T R34E K36G | Ctrl | 1.99 1.48 ND 1.76 ND ND | 1.74 | 0/18 |
| A57S S103R | Ctrl | ND 1.67 ND ND ND ND | 1.67 | 0/18 |
| E32L R34E W56K E61F | Ctrl | 1.08 1.89 1.26 1.16 0.99 1.01 | 1.23 | 1/18 (1.04) |
| Y31T W56D | Ctrl+GP_HC | 0.34 0.13 0.11 0.03 0.05 0.20; 0.37 0.20 0.19 0.29 -0.14 0.81 | 0.21 | 2/36 (2.62) |
| K36L N37I S38Q Q96S | Ctrl | 1.62 2.19 1.94 2.76 1.36 1.14 | 1.83 | 0/18 |
| N37Q T59Q S62P S103A | Ctrl | ND ND ND ND ND ND | ND | 0/18 |
| K24W V29S R34M S38N Y97P L102I S103N | Ctrl | ND 0.26 -0.51 0.44 0.29 -0.29 | 0.04 | 0/18 |
| K24V R60L | Ctrl | ND ND ND ND ND ND | ND | 0/18 |

From the list, the first 4 with no signal in any replicate:

changes	group	log10 Kd, replicates	log10 Kd (nM), mean	control signals
L30G E32M H98V	Ctrl	ND ND ND ND ND ND	ND	0/18
S26P V29M L30M Y97G	Ctrl	ND ND ND ND ND ND	ND	1/18 (1.42)
T59G R99T	Ctrl	ND ND ND ND ND ND	ND	0/18
N35A K36G	Ctrl	ND ND ND ND ND ND	ND	0/18

Of ten entries with the parent sequence, four were seen in most replicates (averages 0.34 to 2.37), three in one and three in none, so single entries are noisy.
Values of this round are not directly comparable with the first-round values of the same sequences.
Background: pairings of all light chain designs with three empty control strains gave a value in 4% of cases (median 2.64, 5th percentile 1.59). Values in that range, when seen in few replicates, are hard to tell from nonspecific mating. Also given: how often the same scFv was detected with the empty control strains, with their mean in brackets.
The authors averaged sequences with at least three values out of six and counted those with two or fewer as poor binders.
Some sequences occur more than once in the pool; their replicates are listed entry by entry, parted by semicolons.